Numbering of substitutions follows the chain as printed.
What was measured:
Assay in all cases: Calcium assay, HEK293/Gα16 cells, GAL2R mutants
Type in all cases: cell-based
GAL2R mutants [1] = target: T1, GAL2R mutants (Homo sapiens, UniProt O43603, A170S); conditions: GAL2R A170ECL2S; spexin, HEK293/Gα16; mean ± S.E.M.
T1 construct: expressed in transfected cells; host or cells: HEK293
T1 sequence (O43603 1-387 A170S): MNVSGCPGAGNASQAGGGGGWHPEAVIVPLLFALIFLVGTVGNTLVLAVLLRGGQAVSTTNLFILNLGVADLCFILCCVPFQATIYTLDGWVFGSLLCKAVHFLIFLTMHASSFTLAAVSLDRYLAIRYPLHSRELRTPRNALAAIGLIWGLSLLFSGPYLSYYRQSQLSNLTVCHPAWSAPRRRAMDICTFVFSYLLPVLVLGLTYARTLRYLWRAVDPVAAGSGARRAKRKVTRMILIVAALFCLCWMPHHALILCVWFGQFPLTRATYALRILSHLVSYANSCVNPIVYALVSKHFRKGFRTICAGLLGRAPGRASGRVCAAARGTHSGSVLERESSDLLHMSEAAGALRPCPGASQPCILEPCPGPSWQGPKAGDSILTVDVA

GAL2R mutants [2] = target: T2, GAL2R mutants (Homo sapiens, UniProt O43603, L169A); conditions: GAL2R L169ECL2A, spexin
T2 construct: expressed in transfected cells; host or cells: HEK293
T2 sequence (O43603 1-387 L169A): T1 sequence (O43603 1-387 A170S) with L169A, S170A

GAL2R mutants [3] = target: T3, GAL2R mutants (Homo sapiens, UniProt O43603, L266A); conditions: GAL2R L266ECL3A; spexin, HEK293/Gα16; mean ± S.E.M.
T3 construct: expressed in transfected cells; host or cells: HEK293
T3 sequence (O43603 1-387 L266A): T1 sequence (O43603 1-387 A170S) with S170A, L266A

GAL2R mutants [4] = target: T4, GAL2R mutants (Homo sapiens, UniProt O43603, Q82A); conditions: GAL2R Q822.61A, spexin
T4 construct: expressed in transfected cells; host or cells: HEK293
T4 sequence (O43603 1-387 Q82A): T1 sequence (O43603 1-387 A170S) with Q82A, S170A

GAL2R mutants [5] = target: T5, GAL2R mutants (Homo sapiens, UniProt O43603, Y86A); conditions: GAL2R Y862.65A, spexin
T5 construct: expressed in transfected cells; host or cells: HEK293
T5 sequence (O43603 1-387 Y86A): T1 sequence (O43603 1-387 A170S) with Y86A, S170A

**Q.** What does the source list for spexin?
**A.** EC50 (GAL2R mutants [1]): 0.132 ± 0.019 µM; EC50 (GAL2R mutants [2]; HEK293/Gα16, mean ± S.E.M.): 4.71 ± 1.56 µM; EC50 (GAL2R mutants [2]; replicate 3): 1.827 µM; EC50 (GAL2R mutants [3]): 17.5 ± 3.95 µM; EC50 (GAL2R mutants [4]; replicate 1): no response; EC50 (GAL2R mutants [4]; replicate 2): no response; EC50 (GAL2R mutants [4]; replicate 3): no response; EC50 (GAL2R mutants [5]; replicate 1): no response; EC50 (GAL2R mutants [5]; replicate 2): no response; EC50 (GAL2R mutants [5]; replicate 3): no response
